According to patent US6780853B1, “Neuroactive steroids of the androstane and pregnane series” (priority 1995, dated 2004):

Target: T1, Glucocorticoid Receptors (Rattus norvegicus, UniProt P06536)
T1 construct: from tissue; host or cells: rat brain cytosol
T1 sequence (P06536 1-795): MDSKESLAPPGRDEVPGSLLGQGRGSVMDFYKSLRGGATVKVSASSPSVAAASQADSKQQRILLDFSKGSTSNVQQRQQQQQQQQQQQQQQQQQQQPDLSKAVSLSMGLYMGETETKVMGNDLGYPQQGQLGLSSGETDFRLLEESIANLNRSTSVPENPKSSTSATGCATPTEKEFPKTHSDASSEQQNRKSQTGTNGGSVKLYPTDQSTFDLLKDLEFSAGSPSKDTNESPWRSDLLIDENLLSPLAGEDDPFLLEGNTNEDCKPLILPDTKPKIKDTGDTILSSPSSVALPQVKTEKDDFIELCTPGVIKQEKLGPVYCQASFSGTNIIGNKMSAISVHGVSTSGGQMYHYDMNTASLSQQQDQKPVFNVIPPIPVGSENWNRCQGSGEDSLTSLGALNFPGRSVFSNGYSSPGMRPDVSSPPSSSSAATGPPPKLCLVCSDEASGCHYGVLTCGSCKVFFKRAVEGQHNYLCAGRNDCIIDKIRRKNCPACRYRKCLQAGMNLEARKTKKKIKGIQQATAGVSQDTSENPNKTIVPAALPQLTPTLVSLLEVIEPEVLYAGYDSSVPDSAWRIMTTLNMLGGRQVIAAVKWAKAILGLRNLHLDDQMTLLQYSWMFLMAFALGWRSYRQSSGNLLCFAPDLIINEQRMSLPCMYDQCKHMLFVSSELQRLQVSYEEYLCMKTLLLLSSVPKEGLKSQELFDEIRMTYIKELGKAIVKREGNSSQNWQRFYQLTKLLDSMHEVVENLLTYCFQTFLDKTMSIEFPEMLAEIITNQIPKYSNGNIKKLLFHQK
Assay: Inhibition of 3H-Dexamethasone Binding to Glucocorticoid Receptors
Settings: competitor 10^−6M; 3 nM 3H-dexamethasone

## CC(=O)[C@H]1CC[C@H]2[C@@H]3CC[C@@H]4C[C@H](O)CC[C@]4(C)[C@H]3CC[C@]12C [5β-pregnan-3α-of-20-one, 5β-pregnan-3α-ol-20 -one]
  % of Inhibition: 5.9%
